This passage reports IC50 results from US20100278751A1, “RADIOLABELED 2-AMINO-4-ALKYL-6-(HALOALKYL)PYRIDINE COMPOUNDS AND THEIR USE IN DIAGNOSTIC IMAGING” (WASHINGTON UNIVERSITY, priority 2009, published 2010).

Amino acid sequences for entries named in this document (tags omitted).
UniProt P35228, whole entry: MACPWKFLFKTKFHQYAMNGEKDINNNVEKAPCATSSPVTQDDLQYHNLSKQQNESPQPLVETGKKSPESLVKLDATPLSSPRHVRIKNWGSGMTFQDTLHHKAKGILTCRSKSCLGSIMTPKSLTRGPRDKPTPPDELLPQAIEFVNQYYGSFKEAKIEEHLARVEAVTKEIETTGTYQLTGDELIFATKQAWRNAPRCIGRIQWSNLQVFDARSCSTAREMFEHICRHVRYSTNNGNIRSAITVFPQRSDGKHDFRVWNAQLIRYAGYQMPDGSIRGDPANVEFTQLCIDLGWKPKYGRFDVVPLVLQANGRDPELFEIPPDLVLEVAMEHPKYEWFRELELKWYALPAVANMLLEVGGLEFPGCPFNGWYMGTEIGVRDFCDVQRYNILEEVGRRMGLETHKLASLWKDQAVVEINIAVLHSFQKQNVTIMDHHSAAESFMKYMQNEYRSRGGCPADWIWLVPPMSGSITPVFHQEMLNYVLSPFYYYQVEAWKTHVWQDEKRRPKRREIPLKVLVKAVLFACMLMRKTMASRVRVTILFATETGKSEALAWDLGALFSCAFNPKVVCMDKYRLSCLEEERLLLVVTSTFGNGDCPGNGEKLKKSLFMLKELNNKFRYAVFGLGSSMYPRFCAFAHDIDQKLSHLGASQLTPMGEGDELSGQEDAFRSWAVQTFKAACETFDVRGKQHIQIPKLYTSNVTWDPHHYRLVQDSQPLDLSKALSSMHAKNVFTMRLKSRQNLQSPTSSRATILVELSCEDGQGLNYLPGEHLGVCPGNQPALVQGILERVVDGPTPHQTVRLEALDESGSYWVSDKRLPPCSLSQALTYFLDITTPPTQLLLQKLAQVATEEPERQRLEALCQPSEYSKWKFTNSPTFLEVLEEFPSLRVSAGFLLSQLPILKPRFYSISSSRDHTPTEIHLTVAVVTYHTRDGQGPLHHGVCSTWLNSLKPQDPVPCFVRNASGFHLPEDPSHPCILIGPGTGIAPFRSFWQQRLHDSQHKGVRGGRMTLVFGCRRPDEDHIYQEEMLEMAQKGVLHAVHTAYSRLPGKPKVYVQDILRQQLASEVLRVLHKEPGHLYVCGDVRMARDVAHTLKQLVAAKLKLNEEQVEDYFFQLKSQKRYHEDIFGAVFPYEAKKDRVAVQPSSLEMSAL

Bounds are passed on as bounds.

The assay has as its target iNOS (Homo sapiens, UniProt P35228). Kind of assay: iNOS activity, nitric oxide synthase screening kit (IC50). The format is biochemical. The note with it: read-out: IC50 of tested compounds.
As a reminder, the IC50 is the concentration that gives 50% inhibition. As to `COc1ccnc(NC2CCN(C(=O)c3cccc(Br)c3)CC2)c1`, the half-inhibitory concentration (IC50) was > 5 µM.
With `COc1ccnc(NC2CCN(C(=O)c3ccc(F)cc3)CC2)c1`, the half-inhibitory concentration (IC50) stood at 1.17 µM.
Take `COc1ccnc(NC2CCN(C(=O)c3ccc(Br)cc3)CC2)c1`: the IC50 turned out to be 0.8 µM.
For `COc1ccnc(NC2CCN(C(=O)c3ccc(Cl)cc3)CC2)c1`, the concentration for half-maximal inhibition (IC50) was 0.789 µM.
